Measured values published in patent US20070036775A1, “Method of modulating or examining Ku70 levels in cells” (priority 2001, published 2007).

System: HEK293T cells
Experiment: Bak-induced cell death in HEK293T cells
Format: cell-based
Settings: HEK293T cells co-transfected with pcDNA3-Bak
Procedure: FIG. 1. […] FIG. 1A: Scheme of Ku70 full-length, Bax-suppressor clones (clone 1 and 2) obtained by yeast-based functional screening using pGilda-Bax plasmid for Bax expression as reported (Xu, et al., 2000). FIG. 1B: Ku70 suppresses Bax-induced apoptosis in HEK293T cells as well as XIAP. 10^6 cells were transfected with 1.0 μg of pcDNA3 (Control) or pcDNA3-Bax (Bax) together with 0.5, 1.0, or 2.0 μg of pCMV-2B-Ku70 wt (Ku70 wt) or pcDNA3-Myc-XIAP (XIAP). In “Bax+Vector” group, 1.0 μg pcDNA3-Bax and 2 ug of pCMV-2B were used, respectively (Control and Bax+Vector). All the cells were also co-transfected with 0.5 μg pEGFP for the marking of transfected cells. Apoptosis in the transfected cells was analyzed 24 hours following transfection with Hoechst dye staining of the nucleus as described in Experimental Procedure. FIG. 1C: Time course of the suppression of Bax-induced apoptosis by Ku70 and XIAP in HEK293T cells. […] Apoptosis in the transfected cells was analyzed at 24 hours (Control) or the indicated time points following transfection. […] After 24 hours, apoptotic cells were counted as described in FIG. 1B. […] The number of apoptotic cells was determined as described in FIG. 1B. […] Apoptosis in the transfected cells was analyzed at the indicated periods following transfection as described in FIG. 1C. […]

Ku70: human full length Ku70, 70 kDa subunit of Ku-complex (609 amino acids), expressed from pCMV-2B plasmid
effect on Bak-induced cell death: could not suppress Bak-induced cell death
